Laboratory results reported in EP0325571B1, “New amines, their use and preparation” (priority 1988, dated 1989).

System: mice
Assay: Acute toxicity in mice, i.v. bolus
Assay type: in vivo
Settings: LD50-interval: between highest dose where 4 mice survived and lowest dose where 4 mice died within 5 minutes after i.v. bolus
Method: d) Acute toxicity in mice
The antagonists to be tested were dissolved in 0.9% NaCI. If they were not soluble in 0.9% NaCI they were dissolved in double distilled water. The solutions were prepared on the day of the experiment.
White male mice, 25 g, were placed in a mouse holder. The tested compounds were given as i.v. bolus doses in one of the four tail-veins, with a volume of 0.01 ml/g mouse. Each substance concentration was given to a group of four mice. 4-5 different concentrations of the antagonists were made and tested.
LDso-interval : The LD50-interval was between the highest dose where 4 mice survived and the lowest dose where 4 mice died within 5 minutes after an i.v. bolus dose.

SMILES: Cc1ccc(O)c(C(CCN(C(C)C)C(C)C)c2ccccc2)c1.O=C(O)C(O)C(O)C(=O)O (single isomer, unassigned) [Compound 4b, (-)-N,N-Diisopropyl-3-(2-hydroxy-5-methylphenyl)-3-phenylpropylamine hydrogen D(-)-tartrate]
- Acute toxicity i.v.: 10 to 20 mg/kg
